The structures appear in SMILES notation. In brackets after ≈: the same amount, converted by molar mass.

The experiment concerns ADP-induced human platelet aggregation. In words: cells. The following applies: read-out: Inhibition of Human Platelet Aggregation (IC50) vs. ADP.
What is called IC50 is the concentration that gives 50% inhibition. Consider `O=C(O)CCCCCCCn1cc(-c2ccccc2)c(-c2ccccc2)nc1=O` [Example 4, 2-Oxo-4,5-diphenyl-1(2H)pyrimidineoctanoic Acid], for which the concentration for half-maximal inhibition (IC50) amounted to 10 µg/mL (≈ 25.6 µM).
Take `COC(=O)CCCCCCCn1cc(-c2ccccc2)c(-c2ccccc2)nc1=O` [Example 3, Methyl 2-Oxo-4,5-diphenyl-1(2H)-pyrimidineoctanoate]: the half-maximal inhibitory concentration (IC50) was greater than 32 µg/mL.
As for `O=C(O)CCCCCCCCn1cc(-c2ccccc2)c(-c2ccccc2)nc1=O` [Example 2, 2-Oxo-4,5-diphenyl-1(2H)-pyrimidinenonanoic Acid], the figure is 12 µg/mL (≈ 29.7 µM); as for `COC(=O)CCCCCCCCn1cc(-c2ccccc2)c(-c2ccccc2)nc1=O` [Example 1, Methyl 2-Oxo-4,5-diphenyl-1(2H)-pyrimidinenonanoate], greater than 32 µg/mL.
